2 substances from paper PMC5701749 (Biochemistry, 2017) can be followed below.

The chains behind the UniProt entries cited, without tags or fusion partners.
UniProt P21447, whole entry: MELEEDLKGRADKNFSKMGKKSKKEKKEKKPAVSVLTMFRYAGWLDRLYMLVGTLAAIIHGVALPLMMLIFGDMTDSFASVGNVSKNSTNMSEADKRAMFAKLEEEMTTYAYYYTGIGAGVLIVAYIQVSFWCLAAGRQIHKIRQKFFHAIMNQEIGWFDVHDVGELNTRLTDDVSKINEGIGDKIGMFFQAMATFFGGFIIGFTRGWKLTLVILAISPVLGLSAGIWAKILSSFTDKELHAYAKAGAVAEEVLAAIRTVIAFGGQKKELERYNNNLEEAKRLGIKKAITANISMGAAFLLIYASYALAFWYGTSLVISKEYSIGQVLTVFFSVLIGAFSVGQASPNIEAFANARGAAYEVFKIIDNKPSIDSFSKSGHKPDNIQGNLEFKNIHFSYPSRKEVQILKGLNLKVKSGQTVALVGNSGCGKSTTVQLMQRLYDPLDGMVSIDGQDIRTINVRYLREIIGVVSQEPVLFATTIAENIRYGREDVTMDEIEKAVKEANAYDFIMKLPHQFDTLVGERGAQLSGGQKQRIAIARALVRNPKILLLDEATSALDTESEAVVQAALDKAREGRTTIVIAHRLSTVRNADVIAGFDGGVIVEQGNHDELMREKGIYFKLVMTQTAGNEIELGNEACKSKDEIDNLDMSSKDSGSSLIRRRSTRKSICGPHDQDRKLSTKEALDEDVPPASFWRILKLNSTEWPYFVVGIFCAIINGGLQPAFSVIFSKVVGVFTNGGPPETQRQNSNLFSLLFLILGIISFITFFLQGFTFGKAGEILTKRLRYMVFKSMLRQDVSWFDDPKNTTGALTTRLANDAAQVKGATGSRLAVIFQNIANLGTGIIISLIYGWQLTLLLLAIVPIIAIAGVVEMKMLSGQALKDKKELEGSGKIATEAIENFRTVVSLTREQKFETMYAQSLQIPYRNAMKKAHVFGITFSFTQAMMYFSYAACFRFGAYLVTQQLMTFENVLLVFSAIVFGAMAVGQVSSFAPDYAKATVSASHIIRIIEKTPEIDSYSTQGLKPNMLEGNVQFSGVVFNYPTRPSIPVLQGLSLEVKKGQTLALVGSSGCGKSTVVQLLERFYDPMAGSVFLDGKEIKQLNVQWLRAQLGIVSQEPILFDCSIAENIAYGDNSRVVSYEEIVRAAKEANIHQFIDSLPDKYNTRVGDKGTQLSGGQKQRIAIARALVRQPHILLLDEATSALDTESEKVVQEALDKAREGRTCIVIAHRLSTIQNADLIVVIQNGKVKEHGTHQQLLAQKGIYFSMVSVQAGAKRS
UniProt P08183, whole entry: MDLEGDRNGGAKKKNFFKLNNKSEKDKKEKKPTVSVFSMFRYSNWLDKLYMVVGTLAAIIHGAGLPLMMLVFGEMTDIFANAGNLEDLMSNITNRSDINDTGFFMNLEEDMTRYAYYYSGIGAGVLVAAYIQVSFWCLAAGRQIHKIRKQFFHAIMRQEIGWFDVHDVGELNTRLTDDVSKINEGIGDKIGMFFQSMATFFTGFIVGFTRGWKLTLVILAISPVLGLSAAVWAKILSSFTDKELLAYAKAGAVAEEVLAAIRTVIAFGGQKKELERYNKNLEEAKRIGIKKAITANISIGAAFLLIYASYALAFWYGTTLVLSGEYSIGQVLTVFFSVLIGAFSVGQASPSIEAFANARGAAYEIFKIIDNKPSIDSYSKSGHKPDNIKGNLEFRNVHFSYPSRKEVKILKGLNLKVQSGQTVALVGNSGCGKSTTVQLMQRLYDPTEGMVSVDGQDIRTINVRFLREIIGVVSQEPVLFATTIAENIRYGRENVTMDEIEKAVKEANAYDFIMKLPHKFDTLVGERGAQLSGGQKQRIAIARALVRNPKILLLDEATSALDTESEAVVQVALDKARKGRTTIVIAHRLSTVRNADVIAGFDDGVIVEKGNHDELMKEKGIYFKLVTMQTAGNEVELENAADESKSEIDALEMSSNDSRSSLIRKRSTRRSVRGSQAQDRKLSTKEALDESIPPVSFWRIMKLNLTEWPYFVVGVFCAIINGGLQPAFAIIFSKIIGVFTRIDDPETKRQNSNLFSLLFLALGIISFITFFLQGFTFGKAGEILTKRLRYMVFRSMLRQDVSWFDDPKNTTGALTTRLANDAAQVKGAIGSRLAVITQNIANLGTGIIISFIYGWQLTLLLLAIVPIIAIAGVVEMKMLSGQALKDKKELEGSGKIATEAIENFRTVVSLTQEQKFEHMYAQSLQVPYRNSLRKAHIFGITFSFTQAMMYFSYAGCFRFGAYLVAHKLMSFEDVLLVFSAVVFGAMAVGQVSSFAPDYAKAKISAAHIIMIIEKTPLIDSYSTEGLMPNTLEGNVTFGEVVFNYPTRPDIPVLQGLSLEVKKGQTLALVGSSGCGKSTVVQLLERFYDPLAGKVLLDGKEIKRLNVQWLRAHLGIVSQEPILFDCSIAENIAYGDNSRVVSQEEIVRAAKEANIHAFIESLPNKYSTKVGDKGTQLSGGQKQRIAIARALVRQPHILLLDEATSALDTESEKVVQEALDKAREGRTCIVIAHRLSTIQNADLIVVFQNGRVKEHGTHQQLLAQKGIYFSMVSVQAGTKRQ

Read-outs that look alike come from different tables or passages of the source.

The target of data set [1] is T1, mouse P-gp mdr1a (Mus musculus, UniProt P21447). The conditions noted are these: E. coli lipid nanodiscs; footnote d = ambiguous, lack of ATPase stimulation.
The target in data set [2] is T1, mouse P-gp mdr1a. The conditions noted are these: DMPC nanodiscs; footnote d = ambiguous, lack of ATPase stimulation.
For data set [3], the target named is human P-gp (Homo sapiens, UniProt P08183). The data set can be described thus: ATPase assay in human P-gp vesicles. Particulars: concentration range studied.

On to BODIPY vinblastine [BD-vinblastine], for which the “K1 (substrate concentration for half-maximal stimulation of ATPase activity)” value is 0.05 ± 0.1 ^d μM in data set [1] and 0.04 ± 0.01 µM in data set [2]. As to Oregon Green 488 Paclitaxel [Flutax-2], in data set [3], the “stimulation of ATPase activity (in words)” value is “did not stimulate ATPase activity”.
